Substrate in the data set: O=[N+]([O-])c1ccc(O[C@@H]2O[C@H](CO)[C@@H](O)[C@H](O)[C@@H]2O)cc1
Nature of the data set: purified protein, by the assay type. The format is biochemical. The conditions noted are these: other: His-BGPh, 90° C. and pH 6.0.

B1: his-tagged BGPh from P. horikoshii (His-BGPh) (Pyrococcus horikoshii OT3) (protein)
chain: MPLKFPEMFLFGTATSSHQIEGNNRWNDWWYYEQIGKLPYRSGKACNHWELYRDDIQLMTSLGYNAYRFSIEWSRLFPEENKFNEDAFMKYREIIDLLLTRGITPLVTLHHFTSPLWFMKKGGFLREENLKHWEKYIEKVAELLEKVKLVATFNEPMVYVMMGYLTAYWPPFIRSPFKAFKVAANLLKAHAIAYELLHGKFKVGIVKNIPIILPASDKERDRKAAEKADNLFNWHFLDAIWSGKYRGVFKTYRIPQSDADFIGVNYYTASEVRHTWNPLKFFFEVKLADISERKTQMGWSVYPKGIYMALKKASRYGRPLYITENGIATLDDEWRVEFIIQHLQYVHKAIEDGLDVRGYFYWSFMDNYEWKEGFGPRFGLVEVDYQTFERRPRKSAYVYGEIARSKEIKDELLKRYGLPELQL
On to B1, for which the Km turned out to be 140 µM.

Usually Km stands for the substrate concentration at which the rate is half of its maximum.

The record behind these values is patent publication US6960454B2, “Methods for making and using a thermophilic enzyme as a β-glycosidase” (Director-General of Agency of Industrial Science and …, priority 1998, dated 2005).
